Source: patent US20260042747A1, “KIT INHIBITORS, COMPOUNDS, PHARMACEUTICAL COMPOSITIONS, AND METHODS OF USE THEREOF” (Alivexis, Inc., priority 2022, published 2026)

Chains of the proteins cited; added tags and fusions are not shown. Residues count along the entry.
UniProt P10721, 546-976 limits assumed: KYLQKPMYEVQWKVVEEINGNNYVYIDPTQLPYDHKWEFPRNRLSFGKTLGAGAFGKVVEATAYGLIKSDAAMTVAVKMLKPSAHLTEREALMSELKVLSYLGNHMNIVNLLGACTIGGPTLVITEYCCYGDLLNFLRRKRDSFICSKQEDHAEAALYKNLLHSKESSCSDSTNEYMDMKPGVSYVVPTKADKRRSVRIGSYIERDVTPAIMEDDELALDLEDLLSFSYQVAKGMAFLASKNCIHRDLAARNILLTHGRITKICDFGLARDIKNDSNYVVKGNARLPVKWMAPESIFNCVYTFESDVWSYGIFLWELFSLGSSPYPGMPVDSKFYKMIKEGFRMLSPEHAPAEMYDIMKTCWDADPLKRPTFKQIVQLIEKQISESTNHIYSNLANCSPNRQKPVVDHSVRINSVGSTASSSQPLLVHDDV

Columns and labels:
[1] = biological target: recombinant human KIT tyrosine kinase protein (Homo sapiens (Human), UniProt P10721); assay: KIT tyrosine kinase assay (ADP-Glo)
M-07e cells = assay: SCF-dependent M-07e cell proliferation assay; details: read-out: M-07e IC50, 3 days, CellTiter Glo
Experimental: SCF-dependent cell proliferation assay was developed to measure the inhibitory potency of the compounds in M-07e cells, which express wild-type human KIT protein. The assay was performed in 96-well plates and the IC50 of each KIT inhibitor was determined by CellTiter Glo Assay reagent and Victor X5 Multilabel Counter (Perkin Elmer).
M-07e cells were purchased from AcceGen Biotechnology. Cells were maintained with M-07e Growth medium: RPMI-1640 containing 20% FBS, 100 U/mL penicillin and 100 microgram/mL streptomycin, 10 ng/mL rhGM-CSF, 10 ng/mL rhSCF. M-07e cells were seeded at a density of 5000 cells/90 μL/well in 96-well plates. Test compounds were dissolved in 100% DMSO to make 20 mM stock solution and serially diluted 1:3 with 100% DMSO to make an 11-point dilution series with concen-trations from […] to 0.024 μM. The serially diluted compounds were then each diluted 1:50 with culture medium to obtain assay compound solutions containing 2% DMSO. Ten μL of assay compound solutions were added to the 90 μL of culture cell suspension in the 96-well plate, with a final DMSO concentration of 0.2%. The plates were then incubated in a 5% CO2 incubator at 37° C. for 3 days. To obtain Day Zero Controls for background calculation, cells were seeded at 5000 cells/100 μL in a new 96-well plate and processed on the same day. Both Day Zero controls and 3 day culture plates were then treated as follows. 100 μL of CellTiter Glo Assay reagent was added to each well and the plate was incubated at room temperature for 15 min on a shaker at 200-300 RPM. Then 100 μL of cell lysate samples were transferred to white wall 96-well plates and luminescence was measured by a plate reader. The luminescence of Day Zero Control was subtracted from the luminescence intensity of 3 day culture readings. The assay control for this experiment was cells treated with 0.2% DMSO in culture medium and wells with 100 μL of culture medium (0.2% DMSO without cells) were used as the blank for data analysis.
The IC50 value of each compound was determined by using % inhibition by nor-malizing inhibition in DMSO treated control wells to 0% using the following formula method: […]
Plot percent inhibition in proliferation of triplicates against the respective concen-trations of compound and fit the dose response curve using the sigmoidal dose response equation to generate the IC50 in GraphPad Prism 8 software.

CN(c1cnc(CNC(=O)c2ccc3c(c2)[nH]c(=O)n3C)cn1)C1CC(F)(F)C1
IC50 ([1]; read-out: KIT IC50, Table 98): 60 nM
IC50 (M-07e cells): 1200 nM

COCC(C)N(C)c1ccc(CNC(=O)c2ccc3c(c2)[nH]c(=O)n3C)cn1 (centres unmarked)
IC50 ([1]; read-out: KIT IC50, Table 99): 81 nM
IC50 (M-07e cells): 407 nM

CN(c1cnc(CNC(=O)c2ccc3c(c2)[nH]c(=O)n3C)cn1)C1CCC(F)(F)CC1
IC50 ([1]; read-out: KIT IC50, Table 98): 54 nM
IC50 (M-07e cells): 250 nM

CN(c1ccc(CNC(=O)c2ccc3c(c2)[nH]c(=O)n3C)cn1)C(C)(C)C
IC50 ([1]; read-out: KIT IC50, Table 98): 95 nM
IC50 (M-07e cells): 610 nM

Where two headings read alike, the source gives them in different places.
